Test results published in ChEMBL document CHEMBL4825708, “GDC-9545 (Giredestrant): A Potent and Orally Bioavailable Selective Estrogen Receptor Antagonist and Degrader with an Exceptional Preclinical Profile for ER+ Breast Cancer” (J Med Chem, 2021).

By UniProt entry, the sequences of proteins in these tests, tags left out.
UniProt P03372, whole entry: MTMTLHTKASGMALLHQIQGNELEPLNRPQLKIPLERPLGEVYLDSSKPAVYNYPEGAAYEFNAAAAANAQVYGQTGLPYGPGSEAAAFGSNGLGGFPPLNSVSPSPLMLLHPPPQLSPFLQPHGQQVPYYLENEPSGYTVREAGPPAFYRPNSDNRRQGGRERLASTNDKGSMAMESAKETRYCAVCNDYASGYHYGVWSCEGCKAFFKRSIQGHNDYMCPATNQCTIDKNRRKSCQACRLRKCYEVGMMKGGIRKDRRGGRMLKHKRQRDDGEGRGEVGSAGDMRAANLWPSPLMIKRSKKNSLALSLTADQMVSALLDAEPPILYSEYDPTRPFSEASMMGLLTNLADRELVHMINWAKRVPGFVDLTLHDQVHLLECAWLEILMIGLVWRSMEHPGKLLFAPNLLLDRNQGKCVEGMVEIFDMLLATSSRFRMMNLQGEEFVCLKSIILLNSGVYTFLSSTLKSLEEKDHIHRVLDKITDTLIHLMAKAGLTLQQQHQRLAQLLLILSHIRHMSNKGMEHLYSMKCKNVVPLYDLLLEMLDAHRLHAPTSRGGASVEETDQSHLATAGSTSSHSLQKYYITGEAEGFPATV

Each compound was assayed against T1, Estrogen receptor (Homo sapiens, UniProt P03372). Settings: MCF7, dose 1.0 nM, time 0.5-24 hrs.

| SMILES | T1/2 |
| --- | --- |
| C[C@@H]1Cc2c([nH]c3ccccc23)[C@@H](c2c(F)cc(NC3CN(CCCF)C3)cc2F)N1CC(F)(F)CO [GIREDESTRANT] | 1.8 h |

These compounds were tested against T1, Estrogen receptor. Settings: MCF7, dose 0.0002-100 nM, time 4.0 hrs.

| SMILES | Emax |
| --- | --- |
| C[C@@H]1Cc2c([nH]c3ccccc23)[C@@H](c2c(F)cc(O[C@H]3CCN(CCCF)C3)cc2F)N1CC(F)(F)CO | 99% |
| C[C@@H]1Cc2c([nH]c3ccccc23)[C@@H](c2c(F)cc(OCCN3CC(CF)C3)cc2F)N1CC(C)(C)F | 95% |
| C[C@@H]1Cc2c([nH]c3ccccc23)[C@@H](c2c(F)cc(N[C@H]3CCN(CCCF)C3)cc2F)N1CC(F)(F)CO | 99% |
| C[C@@H]1Cc2c([nH]c3cccc(F)c23)[C@@H](c2c(F)cc(NC3CN(CCCF)C3)cc2F)N1CC(F)(F)CO | 103% |
| C[C@@H]1Cc2c([nH]c3ccccc23)[C@@H](c2c(F)cc(NC3CN(CCCF)C3)cc2F)N1CC(F)(F)CO [GIREDESTRANT] | 101% |
| C[C@@H]1Cc2c([nH]c3ccc(F)cc23)[C@@H](c2c(F)cc(NC3CN(CCCF)C3)cc2F)N1CC(F)(F)CO | 101% |
| C[C@@H]1Cc2c([nH]c3ccccc23)[C@@H](c2c(F)cc(OC3CN(CCCO)C3)cc2F)N1CC(F)(F)CO | 80% |
| C[C@@H]1Cc2c([nH]c3ccccc23)[C@@H](c2c(F)cc(OC3CN(CCCF)C3)cc2F)N1CC(C)(C)F | 100% |
| C[C@@H]1Cc2c([nH]c3ccccc23)[C@@H](c2c(F)cc(NC3CN(CCC(F)F)C3)cc2F)N1CC(F)(F)CO | 100% |
